# Yeast mating assay 1: variants of the scFv Ab-14

From the AlphaSeq antibody data of Engelhart et al. 2022 (doi:10.1038/s41597-022-01779-4), copy in the FLAb collection.

Binding partner: SARS-CoV-2 spike HR2 peptide, sequence PDVDLGDISGINAS.

Parent: Ab-14, a human scFv built as VH, a (GGGGS)3 linker, VL. Only the CDRs of the light chain vary.
VH: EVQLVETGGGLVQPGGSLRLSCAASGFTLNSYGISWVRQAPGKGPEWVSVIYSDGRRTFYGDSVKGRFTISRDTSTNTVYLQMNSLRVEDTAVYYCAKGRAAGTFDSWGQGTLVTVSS
VL: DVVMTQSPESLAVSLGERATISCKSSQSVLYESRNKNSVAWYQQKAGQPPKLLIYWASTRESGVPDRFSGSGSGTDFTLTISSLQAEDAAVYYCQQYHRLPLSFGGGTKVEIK

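The starting antibody came from a phage panning campaign against this peptide. Variants in AAYL50 differ from the parent at up to three CDR positions; double and triple changes were sampled at random. In AlphaSeq, yeast of one mating type display the scFv and yeast of the other type display the target. After mating in shaken culture at 30 °C for 16 h, diploids were selected and their barcode pairs sequenced. The ratio of observed to expected reads was calibrated, replicate by replicate, on BCL2-family standards whose Kd was known from biolayer interferometry. Mating was done three times.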

Sequences are complete VL domains. Every variant below is changed at E32 of the VL (sequential numbering). Numbers give log10(Kd / nM), so 0 is 1 nM and 3 is 1 µM. Smaller is tighter. Averages over replicates are reported, and they cover detected replicates only. A pair that was not seen in that replicate is written "nd"; this usually means weak binding, but a binder can also be missed.

VL,log10 Kd (nM) by replicate,"log10 Kd (nM), mean"
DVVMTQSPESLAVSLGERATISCKSSQSVLYSSRNKNSVAWYQQKAGQPPKLLIYWASTRESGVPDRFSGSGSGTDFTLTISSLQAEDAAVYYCSQYHYLPLSFGGGTKVEIK,2.85 2.90 3.16,2.97
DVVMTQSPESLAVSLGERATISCKSSQSHLYVSRNKNSVAWYQQKAGQPPKLLIYWASTRESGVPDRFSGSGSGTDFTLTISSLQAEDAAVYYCQQYHRLPLSFGGGTKVEIK,2.75 2.38 2.67,2.60
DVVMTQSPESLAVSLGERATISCASSQSVLYGSRNKNFVAWYQQKAGQPPKLLIYWASTRESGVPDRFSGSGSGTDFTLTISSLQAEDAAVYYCQQYHRLPLSFGGGTKVEIK,6.67 5.20 5.51,5.80
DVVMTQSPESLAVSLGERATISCNSSQSVLYKSRNKNSVAWYQQKAGQPPKLLIYWASTRESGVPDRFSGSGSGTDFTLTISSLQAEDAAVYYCQQYHRLPLVFGGGTKVEIK,2.90 nd nd,2.90
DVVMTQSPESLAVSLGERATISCKSSQSVLYGSRNKMSVQWYQQKAGQPPKLLIYWASTRESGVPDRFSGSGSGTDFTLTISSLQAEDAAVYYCQQYHRLPLSFGGGTKVEIK,nd nd nd,nd
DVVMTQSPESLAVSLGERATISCKNSQSVLYFSRNKNSVAWYQQKAGQPPKLLIYWASTRESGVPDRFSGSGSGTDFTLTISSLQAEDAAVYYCQQYHRTPLSFGGGTKVEIK,3.33 2.00 2.09,2.47
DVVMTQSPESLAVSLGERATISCKSSQSVLYGSRNKNTVAWYQQKAGQPPKLLIYWISTRESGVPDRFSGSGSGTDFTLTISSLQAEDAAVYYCQQYHRLPLSFGGGTKVEIK,nd nd nd,nd
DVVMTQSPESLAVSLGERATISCKSSQSVLYAQRNKNSVIWYQQKAGQPPKLLIYWASTRESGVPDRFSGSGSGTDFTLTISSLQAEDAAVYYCQQYHRLPLSFGGGTKVEIK,nd nd nd,nd
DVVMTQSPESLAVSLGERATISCKSNQSVLYMSRNKNSVAWYQQKAGQPPKLLIYWASTTESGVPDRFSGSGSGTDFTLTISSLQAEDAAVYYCQQYHRLPLSFGGGTKVEIK,nd nd nd,nd
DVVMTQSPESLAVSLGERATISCKSSQSVLYWSRNKNSVRWYQQKAGQPPKLLIYWASTRESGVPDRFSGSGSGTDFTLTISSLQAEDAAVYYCQFYHRLPLSFGGGTKVEIK,nd nd nd,nd
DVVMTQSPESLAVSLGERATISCNSSQSVLYPSRNKNSVAWYQQKAGQPPKLLIYWASTRESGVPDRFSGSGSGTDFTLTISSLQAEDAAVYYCQQMHRLPLSFGGGTKVEIK,nd nd nd,nd
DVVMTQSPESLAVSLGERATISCKSAQSVLQASRNKNSVAWYQQKAGQPPKLLIYWASTRESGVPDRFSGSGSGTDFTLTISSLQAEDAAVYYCQQYHRLPLSFGGGTKVEIK,1.13 1.19 1.29,1.20
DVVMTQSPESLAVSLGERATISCKSSQSVWYASRNKNSVAWYQQKAGQPPKLLIYWASTRESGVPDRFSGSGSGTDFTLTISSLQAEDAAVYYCQQYHYLPLSFGGGTKVEIK,5.93 nd nd,5.93
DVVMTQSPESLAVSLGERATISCKSSQSSLYQSANKNSVAWYQQKAGQPPKLLIYWASTRESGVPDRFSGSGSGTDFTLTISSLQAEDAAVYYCQQYHRLPLSFGGGTKVEIK,0.80 1.06 1.04,0.97
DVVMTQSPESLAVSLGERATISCKSSQSVLRHSRNKNSPAWYQQKAGQPPKLLIYWASTRESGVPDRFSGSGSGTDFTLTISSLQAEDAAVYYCQQYHRLPLSFGGGTKVEIK,3.09 nd nd,3.09
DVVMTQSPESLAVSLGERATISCKSSQSVQYISRNKNSVAWYQQKAGQPPKLLIYWARTRESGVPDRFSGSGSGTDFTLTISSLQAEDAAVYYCQQYHRLPLSFGGGTKVEIK,nd nd nd,nd
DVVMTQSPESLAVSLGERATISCKSSQEVLYLSRNKNSVAWYQQKAGQPPKLLIYWASTREFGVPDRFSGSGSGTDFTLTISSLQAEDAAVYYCQQYHRLPLSFGGGTKVEIK,5.08 2.01 1.88,2.99
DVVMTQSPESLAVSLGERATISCKSSQSVLYSSRNKPSVAWYQQKAGQPPKLLIYWASTRESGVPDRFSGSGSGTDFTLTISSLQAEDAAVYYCQQLHRLPLSFGGGTKVEIK,nd nd nd,nd

For reference, 2 entries of the list once more:

VL	log10 Kd (nM) by replicate	log10 Kd (nM), mean
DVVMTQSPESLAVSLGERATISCASSQSVLYGSRNKNFVAWYQQKAGQPPKLLIYWASTRESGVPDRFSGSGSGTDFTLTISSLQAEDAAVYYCQQYHRLPLSFGGGTKVEIK	6.67 5.20 5.51	5.80
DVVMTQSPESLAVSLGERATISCKSSQEVLYLSRNKNSVAWYQQKAGQPPKLLIYWASTREFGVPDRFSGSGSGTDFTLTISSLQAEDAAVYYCQQYHRLPLSFGGGTKVEIK	5.08 2.01 1.88	2.99

Nonspecific signal, from three strains lacking the peptide, appeared in 18% of pairings of library AAYL50, centred on 4.19 (5% of these signals below 2.99); values are not corrected for it.